{"sequences": {"note": "Protein sequences, listed by entry. Tags and fused reporters are not part of them. Lines headed by an entry give the natural chain unless they say otherwise; changes in a name come on top.", "UniProt P04150": "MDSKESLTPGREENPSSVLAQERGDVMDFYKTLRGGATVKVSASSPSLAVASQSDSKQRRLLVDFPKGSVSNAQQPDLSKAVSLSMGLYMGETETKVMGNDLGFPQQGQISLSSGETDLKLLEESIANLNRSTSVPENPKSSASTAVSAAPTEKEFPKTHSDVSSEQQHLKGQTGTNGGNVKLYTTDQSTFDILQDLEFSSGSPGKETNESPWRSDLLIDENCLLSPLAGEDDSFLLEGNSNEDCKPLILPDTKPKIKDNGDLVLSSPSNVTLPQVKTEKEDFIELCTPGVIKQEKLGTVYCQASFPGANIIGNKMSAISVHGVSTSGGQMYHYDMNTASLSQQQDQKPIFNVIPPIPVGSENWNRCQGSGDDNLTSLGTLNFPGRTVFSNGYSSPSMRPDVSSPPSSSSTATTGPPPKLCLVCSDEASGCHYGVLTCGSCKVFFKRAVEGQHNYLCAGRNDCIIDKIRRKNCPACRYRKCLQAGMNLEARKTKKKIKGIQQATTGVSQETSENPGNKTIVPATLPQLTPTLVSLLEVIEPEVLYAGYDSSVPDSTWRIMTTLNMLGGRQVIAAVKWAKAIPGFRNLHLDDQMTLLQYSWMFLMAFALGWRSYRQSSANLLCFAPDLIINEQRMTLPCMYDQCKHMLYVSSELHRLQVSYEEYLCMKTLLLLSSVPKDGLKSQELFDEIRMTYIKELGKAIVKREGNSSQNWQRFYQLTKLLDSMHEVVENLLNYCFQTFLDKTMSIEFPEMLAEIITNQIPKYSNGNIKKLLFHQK", "UniProt Q13133, whole entry, looked up": "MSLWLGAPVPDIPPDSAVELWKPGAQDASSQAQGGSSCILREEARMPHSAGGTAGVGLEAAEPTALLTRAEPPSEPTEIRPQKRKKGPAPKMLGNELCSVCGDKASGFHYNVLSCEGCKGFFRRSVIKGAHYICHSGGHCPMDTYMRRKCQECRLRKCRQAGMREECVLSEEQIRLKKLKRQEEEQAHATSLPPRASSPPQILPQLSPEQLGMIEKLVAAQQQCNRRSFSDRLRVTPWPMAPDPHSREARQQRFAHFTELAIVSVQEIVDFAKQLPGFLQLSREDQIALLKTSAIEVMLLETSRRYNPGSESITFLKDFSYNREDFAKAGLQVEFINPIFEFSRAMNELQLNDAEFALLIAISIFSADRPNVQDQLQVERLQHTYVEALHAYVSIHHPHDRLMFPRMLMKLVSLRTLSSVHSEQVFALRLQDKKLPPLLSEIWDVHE", "UniProt P55055, whole entry, looked up": "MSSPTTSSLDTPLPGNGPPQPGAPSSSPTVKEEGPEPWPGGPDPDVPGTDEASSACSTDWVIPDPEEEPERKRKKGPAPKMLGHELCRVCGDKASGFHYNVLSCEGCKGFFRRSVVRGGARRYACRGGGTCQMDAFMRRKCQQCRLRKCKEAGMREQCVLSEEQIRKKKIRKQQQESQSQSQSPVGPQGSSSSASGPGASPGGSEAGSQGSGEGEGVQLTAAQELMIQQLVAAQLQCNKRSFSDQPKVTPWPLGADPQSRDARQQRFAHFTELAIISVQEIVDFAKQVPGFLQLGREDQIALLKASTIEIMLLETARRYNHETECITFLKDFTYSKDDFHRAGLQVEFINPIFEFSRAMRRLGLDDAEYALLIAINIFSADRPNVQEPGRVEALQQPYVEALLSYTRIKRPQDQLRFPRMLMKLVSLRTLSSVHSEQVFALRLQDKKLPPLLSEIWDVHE", "UniProt Q96RI1": "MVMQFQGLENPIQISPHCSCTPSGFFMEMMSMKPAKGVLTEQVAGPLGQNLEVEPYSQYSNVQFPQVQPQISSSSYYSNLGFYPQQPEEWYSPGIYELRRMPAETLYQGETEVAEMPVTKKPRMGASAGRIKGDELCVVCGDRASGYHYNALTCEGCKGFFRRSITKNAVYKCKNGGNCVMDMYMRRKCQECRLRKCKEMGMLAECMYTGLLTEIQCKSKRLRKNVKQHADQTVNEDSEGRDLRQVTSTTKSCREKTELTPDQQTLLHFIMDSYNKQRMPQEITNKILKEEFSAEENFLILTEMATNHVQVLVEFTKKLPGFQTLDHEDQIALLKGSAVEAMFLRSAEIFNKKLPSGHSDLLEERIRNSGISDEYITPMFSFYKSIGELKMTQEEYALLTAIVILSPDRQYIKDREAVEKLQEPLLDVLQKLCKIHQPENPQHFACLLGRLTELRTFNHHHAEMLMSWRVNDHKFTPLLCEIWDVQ", "UniProt P41235": "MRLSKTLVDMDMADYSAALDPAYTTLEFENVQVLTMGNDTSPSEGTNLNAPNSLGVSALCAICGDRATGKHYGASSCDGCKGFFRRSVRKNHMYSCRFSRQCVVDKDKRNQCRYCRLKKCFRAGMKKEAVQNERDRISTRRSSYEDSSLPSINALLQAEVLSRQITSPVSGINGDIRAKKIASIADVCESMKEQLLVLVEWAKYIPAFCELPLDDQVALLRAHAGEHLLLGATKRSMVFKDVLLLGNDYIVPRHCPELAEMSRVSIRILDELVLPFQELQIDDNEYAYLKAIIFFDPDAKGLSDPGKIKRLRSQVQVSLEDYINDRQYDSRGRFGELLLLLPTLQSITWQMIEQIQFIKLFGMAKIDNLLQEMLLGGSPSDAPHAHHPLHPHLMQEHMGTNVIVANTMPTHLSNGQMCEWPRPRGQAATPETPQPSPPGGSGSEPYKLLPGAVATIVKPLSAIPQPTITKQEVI"}, "source": "PubChem BioAssay (EPA / NIEHS)", "key": {"[1]": {"experiment": "ATG_M_19_TRANS: Attagene TRANS-FACTORIAL HepG2 Assay for M19 Transcription Factor (Internal Marker) (AID 2282974)", "settings": "HepG2 Attagene TRANS-FACTORIAL M19 internal marker reporter", "in_short": "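Cells: human HepG2, transiently transfected with multiplexed reporter transcription units. Exposure: 24 h. Detection: RT-PCR of reporter mRNA with capillary electrophoresis. Analysis: gain-of-signal vs DMSO.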"}, "[2]": {"target": "Glucocorticoid receptor (Homo sapiens) (UniProt P04150)", "experiment": "ATG_GR_TRANS: Attagene TRANS-FACTORIAL HepG2 Assay for human Glucocorticoid Receptor (GR) (AID 2282978);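 further: activators score as hits since higher reporter transcript over DMSO is fitted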", "settings": "HepG2 Attagene TRANS GR reporter, mRNA transcription"}, "[3]": {"target": "Oxysterols receptor LXR-alpha (Homo sapiens) (UniProt Q13133)", "experiment": "ATG_LXRa_TRANS: Attagene TRANS-FACTORIAL HepG2 Assay for human Liver X Receptor alpha (LXRa) (AID 2282980)", "settings": "HepG2 Attagene TRANS reporter, LXRa transactivation", "in_short": "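Transient HepG2 transfectants, 24 h dosing, RT-PCR/CE mRNA reporter quantitation; gain-of-signal vs DMSO.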"}, "[4]": {"target": "Oxysterols receptor LXR-beta (Homo sapiens) (UniProt P55055)", "experiment": "ATG_LXRb_TRANS: Attagene TRANS-FACTORIAL HepG2 Assay for human Liver X Receptor beta (LXRb) (AID 2282981)", "settings": "HepG2 Attagene TRANS GAL4-LXRb reporter, mRNA", "in_short": "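After 24 h of chemical treatment, transfected HepG2 cells yield total RNA; reporter cDNA is PCR-amplified, FAM-labelled, HpaI-cut and run on capillary electrophoresis. Signal reflects chimeric LXRb-Gal4 activity on GAL4-UAS reporters.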"}, "[5]": {"experiment": "ATG_M_06_TRANS: Attagene TRANS-FACTORIAL HepG2 Assay for M06 Transcription Factor (Internal Marker) (AID 2282983);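 further: reporter transcript level by RT-PCR then capillary electrophoresis fluorescence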", "settings": "HepG2 Attagene TRANS M06 internal marker reporter", "in_short": "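Human liver HepG2 cells bearing transiently transfected chimeric NR-GAL4 reporter units were treated with chemicals for 24 h. Total RNA was reverse-transcribed, reporter sequences amplified and labelled, then quantified by capillary electrophoresis. Activity was fitted upward relative to DMSO.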"}, "[6]": {"target": "Bile acid receptor (Homo sapiens) (UniProt Q96RI1)", "experiment": "ATG_FXR_TRANS: Attagene TRANS-FACTORIAL HepG2 Assay for Farnesoid X Receptor (FXR) (AID 2282979);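 further: hits raise reporter mRNA above DMSO so AC50 marks FXR activation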", "settings": "HepG2 Attagene TRANS FXR-GAL4 reporter transcription", "in_short": "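Chimeric FXR-GAL4 activity in transiently transfected human HepG2 liver cells is scored as induction of reporter mRNA after 24 h of dosing. Detection uses RT-PCR with fluorescent labelling and capillary electrophoresis, with DMSO serving as baseline.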"}, "[7]": {"target": "Hepatocyte nuclear factor 4-alpha (Homo sapiens) (UniProt P41235)", "experiment": "ATG_HNF4a_TRANS: Attagene TRANS-FACTORIAL HepG2 Assay for human Hepatocyte Nuclear Factor 4 alpha (HNF4a) (AID 2282982)", "settings": "HepG2 HNF4a transactivation reporter, mRNA readout", "in_short": "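Multiplexed reporter assay: transfected HepG2, 24 h exposure, total RNA → oligo(dT) RT → PCR → 6-FAM extension → HpaI digest → CE fluorescence. DMSO = negative control.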"}}, "note": "The list shows a part of the results, in another mix than the full data. Records with an inconclusive call do not appear. Active and inactive are the calls of the source. How the source made its calls: active means hit-call score of the fitted dose curve at least 0.9, where 1 is the maximum; inconclusive means response in the unintended direction; inactive means score below 0.9."}
{"molecule": "CC(C)CCCCCCCOP(OCCCCCCCC(C)C)Oc1ccccc1", "values": [{"measurement": "outcome", "setting": "[1]", "result": "inactive"}, {"measurement": "outcome", "setting": "[2]", "result": "inactive"}, {"measurement": "outcome", "setting": "[3]", "result": "inactive"}, {"measurement": "outcome", "setting": "[4]", "result": "inactive"}, {"measurement": "outcome", "setting": "[5]", "result": "inactive"}]}
{"molecule": "N#CSc1ccc([N+](=O)[O-])cc1[N+](=O)[O-]", "values": [{"measurement": "outcome", "setting": "[1]", "result": "inactive"}, {"measurement": "outcome", "setting": "[6]", "result": "inactive"}, {"measurement": "outcome", "setting": "[7]", "result": "inactive"}]}
{"molecule": "Cc1cc([N+](=O)[O-])cc([N+](=O)[O-])c1O", "values": [{"measurement": "outcome", "setting": "[1]", "result": "inactive"}, {"measurement": "outcome", "setting": "[2]", "result": "inactive"}, {"measurement": "outcome", "setting": "[6]", "result": "inactive"}, {"measurement": "outcome", "setting": "[3]", "result": "inactive"}, {"measurement": "AC50", "setting": "[4]", "result": "active: 29.2 µM"}, {"measurement": "outcome", "setting": "[7]", "result": "inactive"}]}
